Molecular target: C-Raf FL (full-length C-Raf protein, Y340E and Y341E activating mutations) (Homo sapiens (Human), UniProt P04049, Y340E/Y341E)
Assay type: biochemical
Conditions: Table 2; AlphaScreen, 1 hour reaction; read-out: c-Raf FL IC-50

Chains of the proteins cited; added tags and fusions are not shown.
UniProt P04049, whole entry Y340E/Y341E: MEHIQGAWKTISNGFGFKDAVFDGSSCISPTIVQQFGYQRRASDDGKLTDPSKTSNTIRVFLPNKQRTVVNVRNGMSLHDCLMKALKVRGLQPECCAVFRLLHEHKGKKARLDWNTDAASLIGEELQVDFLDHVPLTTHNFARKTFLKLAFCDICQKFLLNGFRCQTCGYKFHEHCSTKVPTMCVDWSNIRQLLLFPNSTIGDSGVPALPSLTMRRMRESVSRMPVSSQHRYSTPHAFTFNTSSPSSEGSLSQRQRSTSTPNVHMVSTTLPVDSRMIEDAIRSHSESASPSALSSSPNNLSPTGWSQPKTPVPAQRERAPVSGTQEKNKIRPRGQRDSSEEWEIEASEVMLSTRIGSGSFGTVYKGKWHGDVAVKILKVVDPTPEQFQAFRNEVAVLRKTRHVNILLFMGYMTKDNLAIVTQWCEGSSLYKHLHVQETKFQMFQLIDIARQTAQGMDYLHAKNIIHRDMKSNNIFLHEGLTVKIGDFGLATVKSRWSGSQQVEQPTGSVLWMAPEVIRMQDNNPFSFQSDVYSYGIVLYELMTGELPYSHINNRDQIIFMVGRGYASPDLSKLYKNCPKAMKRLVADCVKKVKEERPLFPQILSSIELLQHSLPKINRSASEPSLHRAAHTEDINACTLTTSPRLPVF

Structure (SMILES): COc1ncc(-c2cc(NC(=O)c3ccnc(C(F)(F)F)c3)cnc2C)cc1N1CCOCC1 [Example 324, N-(6′-methoxy-2-methyl-5′-morpholino-[3,3′-bipyridin]-5-yl)-2-(trifluoromethyl)isonicotinamide]
- IC50: 1.4 nM

Structure (SMILES): Cc1ncc(NC(=O)c2cccc(C(F)(F)F)c2)cc1-c1cnc(OC2CNC2)c(N2CCOCC2)c1 [Example 325, N-(6′-(azetidin-3-yloxy)-2-methyl-5′-morpholino-[3,3′-bipyridin]-5-yl)-3-(trifluoromethyl)benzamide]
- IC50: 62.3 nM

Structure (SMILES): Cc1ncc(NC(=O)c2cccc(C(F)(F)F)c2)cc1-c1cnc(C(C)(C)C#N)c(N2CCOCC2)c1 [Example 326, N-(6′-(2-cyanopropan-2-yl)-2-methyl-5′-morpholino-[3,3′-bipyridin]-5-yl)-3-(trifluoromethyl)benzamide]
- IC50: 1.1 nM

Structure (SMILES): Cc1ncc(NC(=O)c2cccc(C(F)(F)F)c2)cc1-c1cnc(CS(C)(=O)=O)c(N2CCOCC2)c1 [Example 327, N-(2-methyl-6′-((methylsulfonyl)methyl)-5′-morpholino-[3,3′-bipyridin]-5-yl)-3-(trifluoromethyl)benzamide]
- IC50: 1 nM

Structure (SMILES): Cc1ncc(N(C)C(=O)c2cccc(C(F)(F)F)c2)cc1-c1cnc(OC2CCOCC2)c(N2CCOCC2)c1 [Example 328, N-methyl-N-(2-methyl-5′-morpholino-6′-((tetrahydro-2H-pyran-4-yl)oxy)-[3,3′-bipyridin]-5-yl)-3-(trifluoromethyl)benzamide]
- IC50: 17.3 nM

Structure (SMILES): CCN(C(=O)c1cccc(C(F)(F)F)c1)c1cnc(C)c(-c2cnc(OC3CCOCC3)c(N3CCOCC3)c2)c1 [Example 329, N-ethyl-N-(2-methyl-5′-morpholino-6′-((tetrahydro-2H-pyran-4-yl)oxy)-[3,3′-bipyridin]-5-yl)-3-(trifluoromethyl)benzamide]
- IC50: 300 nM

Structure (SMILES): CCCN(C(=O)c1cccc(C(F)(F)F)c1)c1cnc(C)c(-c2cnc(OC3CCOCC3)c(N3CCOCC3)c2)c1 [Example 330, N-(2-methyl-5′-morpholino-6′-((tetrahydro-2H-pyran-4-yl)oxy)-[3,3′-bipyridin]-5-yl)-N-propyl-3-(trifluoromethyl)benzamide]
- IC50: 1300 nM

Structure (SMILES): CCn1cc(-c2cc(NC(=O)c3ccnc(C(C)(C)C#N)c3)cnc2C)cc(N2CCOCC2)c1=O [Example 332, 2-(2-cyanopropan-2-yl)-N-(1′-ethyl-2-methyl-5′-morpholino-6′-oxo-1′,6′-dihydro-[3,3′-bipyridin]-5-yl)isonicotinamide]
- IC50: 7.5 nM

Structure (SMILES): Cc1ncc(NC(=O)c2cccc(C(F)(F)F)c2)cc1-c1cc(N2CCOCC2)c(=O)n(CCC#N)c1 [Example 333, N-(1′-(2-cyanoethyl)-2-methyl-5′-morpholino-6′-oxo-1′,6′-dihydro-[3,3′-bipyridin]-5-yl)-3-(trifluoromethyl)benzamide]
- IC50: 1.5 nM

Structure (SMILES): Cc1ccc(NC(=O)c2ccnc(C(C)(F)F)c2)cc1-c1cc(N2CCOCC2)c(=O)n(CCC#N)c1 [Example 334, N-(3-(1-(2-cyanoethyl)-5-morpholino-6-oxo-1,6-dihydropyridin-3-yl)-4-methylphenyl)-2-(1,1-difluoroethyl)isonicotinamide]
- IC50: 0.7 nM

Structure (SMILES): Cc1ccc(NC(=O)c2ccnc(C(C)(C)C#N)c2)cc1-c1cc(N2CCOCC2)c(=O)n(CCC#N)c1 [Example 335, N-(3-(1-(2-cyanoethyl)-5-morpholino-6-oxo-1,6-dihydropyridin-3-yl)-4-methylphenyl)-2-(2-cyanopropan-2-yl)isonicotinamide]
- IC50: 2 nM

Structure (SMILES): Cc1ccc(NC(=O)c2cccc(C(F)F)c2)cc1-c1cc(N2CCOCC2)c(=O)n(CCC#N)c1 [Example 336, N-(3-(1-(2-cyanoethyl)-5-morpholino-6-oxo-1,6-dihydropyridin-3-yl)-4-methylphenyl)-3-(difluoromethyl)benzamide]
- IC50: 1.3 nM

Structure (SMILES): Cc1ccc(NC(=O)c2ccnc(C(C)(C)C#N)c2)cc1-c1cc(N2CCOCC2)c(=O)n(CC2(C)COC2)c1 [Example 338, 2-(2-cyanopropan-2-yl)-N-(4-methyl-3-(1-((3-methyloxetan-3-yl)methyl)-5-morpholino-6-oxo-1,6-dihydropyridin-3-yl)phenyl)isonicotinamide]
- IC50: 6400 nM

Structure (SMILES): COc1ccc(C(=O)Nc2ccc(C)c(-c3cc(N4CCOCC4)c(=O)n(C)c3)c2)cc1C(F)(F)F [Example 339, 4-methoxy-N-(4-methyl-3-(1-methyl-5-morpholino-6-oxo-1,6-dihydropyridin-3-yl)phenyl)-3-(trifluoromethyl)benzamide]
- IC50: 0.7 nM

Structure (SMILES): CCC(F)(F)c1cc(C(=O)Nc2ccc(C)c(-c3cc(N4CCOCC4)c(=O)n(C)c3)c2)ccn1 [Example 341, 2-(1,1-difluoropropyl)-N-(4-methyl-3-(1-methyl-5-morpholino-6-oxo-1,6-dihydropyridin-3-yl)phenyl)isonicotinamide]
- IC50: 0.5 nM

Structure (SMILES): CCOc1cc(C(=O)Nc2ccc(C)c(-c3cc(N4CCOCC4)c(=O)n(C)c3)c2)ccc1F [Example 344, 3-ethoxy-4-fluoro-N-(4-methyl-3-(1-methyl-5-morpholino-6-oxo-1,6-dihydropyridin-3-yl)phenyl)benzamide]
- IC50: 0.5 nM

Structure (SMILES): Cc1ccc(NC(=O)c2cccc(C3(C#N)CC3)c2Cl)cc1-c1cc(N2CCOCC2)c(=O)n(C)c1 [Example 346, 2-chloro-3-(1-cyanocyclopropyl)-N-(4-methyl-3-(1-methyl-5-morpholino-6-oxo-1,6-dihydropyridin-3-yl)phenyl)benzamide]
- IC50: 1.6 nM

Structure (SMILES): Cc1ccc(NC(=O)c2ccnc(C(C)C)c2)cc1-c1cc(N2CCOCC2)c(=O)n(C)c1 [Example 348, 2-isopropyl-N-(4-methyl-3-(1-methyl-5-morpholino-6-oxo-1,6-dihydropyridin-3-yl)phenyl)isonicotinamide]
- IC50: 0.8 nM

Structure (SMILES): Cc1ccc(NC(=O)c2cccc(-c3nnco3)c2)cc1-c1cc(N2CCOCC2)c(=O)n(C)c1 [Example 349, N-(4-methyl-3-(1-methyl-5-morpholino-6-oxo-1,6-dihydropyridin-3-yl)phenyl)-3-(1,3,4-oxadiazol-2-yl)benzamide]
- IC50: 1.3 nM

Structure (SMILES): Cc1ccc(NC(=O)c2cccc(C(C)(C)S(C)(=O)=O)c2)cc1-c1cc(N2CCOCC2)c(=O)n(C)c1 [Example 351, N-(4-methyl-3-(1-methyl-5-morpholino-6-oxo-1,6-dihydropyridin-3-yl)-phenyl)-3-(2-(methylsulfonyl)propan-2-yl)benzamide]
- IC50: 3.8 nM

Structure (SMILES): CCc1cc(C(=O)Nc2ccc(C)c(-c3cc(N4CCOCC4)c(=O)n(C)c3)c2)ccn1 [Example 353, 2-ethyl-N-(4-methyl-3-(1-methyl-5-morpholino-6-oxo-1,6-dihydropyridin-3-yl)phenyl)isonicotinamide]
- IC50: 0.2 nM

Structure (SMILES): Cc1ccc(NC(=O)c2ccnc(C3CC3)c2)cc1-c1cc(N2CCOCC2)c(=O)n(C)c1 [Example 354, 2-cyclopropyl-N-(4-methyl-3-(1-methyl-5-morpholino-6-oxo-1,6-dihydropyridin-3-yl)phenyl)isonicotinamide]
- IC50: 0.2 nM

Structure (SMILES): Cc1ccc(NC(=O)c2ccnc(C(C)(C)F)c2)cc1-c1cc(N2CCOCC2)c(=O)n(C)c1 [Example 355, 2-(2-fluoropropan-2-yl)-N-(4-methyl-3-(1-methyl-5-morpholino-6-oxo-1,6-dihydropyridin-3-yl)phenyl)isonicotinamide]
- IC50: 0.6 nM

Structure (SMILES): Cc1ccc(NC(=O)c2ccnc(C3(C#N)CC3)c2)cc1-c1cc(N2CCOCC2)c(=O)n(C)c1 [Example 357, 2-(1-cyanocyclopropyl)-N-(4-methyl-3-(1-methyl-5-morpholino-6-oxo-1,6-dihydropyridin-3-yl)phenyl)isonicotinamide]
- IC50: 0.8 nM

Structure (SMILES): Cc1ccc(NC(=O)c2cnnc(C(C)(C)C#N)c2)cc1-c1cc(N2CCOCC2)c(=O)n(C)c1 [Example 360, 6-(2-cyanopropan-2-yl)-N-(4-methyl-3-(1-methyl-5-morpholino-6-oxo-1,6-dihydropyridin-3-yl)phenyl)pyridazine-4-carboxamide]
- IC50: 1.3 nM

Structure (SMILES): Cc1ccc(NC(=O)c2cnnc(C(C)(C)F)c2)cc1-c1cc(N2CCOCC2)c(=O)n(C)c1 [Example 363, 6-(2-fluoropropan-2-yl)-N-(4-methyl-3-(1-methyl-5-morpholino-6-oxo-1,6-dihydropyridin-3-yl)phenyl)pyridazine-4-carboxamide]
- IC50: 0.8 nM

Structure (SMILES): Cc1ccc(NC(=O)c2cc(C(F)(F)F)ccn2)cc1-c1cc(N2CCOCC2)c(=O)n(C)c1 [Example 364, N-(4-methyl-3-(1-methyl-5-morpholino-6-oxo-1,6-dihydropyridin-3-yl)phenyl)-4-(trifluoromethyl)picolinamide]
- IC50: 0.5 nM

Structure (SMILES): Cc1ccc(NC(=O)c2cn(C)nc2C)cc1-c1cc(N2CCOCC2)c(=O)n(C)c1 [Example 366, 1,3-dimethyl-N-(4-methyl-3-(1-methyl-5-morpholino-6-oxo-1,6-dihydropyridin-3-yl)phenyl)-1H-pyrazole-4-carboxamide]
- IC50: 16.7 nM

Structure (SMILES): Cc1ccc(NC(=O)c2cn(C(C)C)nc2C)cc1-c1cc(N2CCOCC2)c(=O)n(C)c1 [Example 367, 1-isopropyl-3-methyl-N-(4-methyl-3-(1-methyl-5-morpholino-6-oxo-1,6-dihydropyridin-3-yl)phenyl)-1H-pyrazole-4-carboxamide]
- IC50: 3 nM

Structure (SMILES): Cc1ccc(NC(=O)c2cc(C3CC3)nn2C)cc1-c1cc(N2CCOCC2)c(=O)n(C)c1 [Example 368, 3-cyclopropyl-1-methyl-N-(4-methyl-3-(1-methyl-5-morpholino-6-oxo-1,6-dihydropyridin-3-yl)phenyl)-1H-pyrazole-5-carboxamide]
- IC50: 2.5 nM

Structure (SMILES): Cc1ccc(NC(=O)c2cc(C(F)(F)F)nn2C)cc1-c1cc(N2CCOCC2)c(=O)n(C)c1 [Example 369, 1-methyl-N-(4-methyl-3-(1-methyl-5-morpholino-6-oxo-1,6-dihydropyridin-3-yl)phenyl)-3-(trifluoromethyl)-1H-pyrazole-5-carboxamide]
- IC50: 12.7 nM

Structure (SMILES): Cc1ccc(NC(=O)c2cc(C(C)C)on2)cc1-c1cc(N2CCOCC2)c(=O)n(C)c1 [Example 371, 5-isopropyl-N-(4-methyl-3-(1-methyl-5-morpholino-6-oxo-1,6-dihydropyridin-3-yl)phenyl)isoxazole-3-carboxamide]
- IC50: 0.2 nM

— patent US9694016B2 (Novartis AG, priority 2013, dated 2017)
